Assay results reported in US20160024487.

Legend:
[1] = system: Lys(Dnp)-ATNATIDPRIVGG-Lys(Abz)
[2] = system: Lys(Dnp)-ATNATPSPRIVGG-Lys(Abz)
[3] = system: Lys(Dnp)-ATNATSGPRIVGG-Lys(Abz)
[4] = system: Lys(Dnp)-ATNATEDPRIVGG-Lys(Abz)
[5] = system: Lys(Dnp)-ATNATX4X3PRIVGG-Lys(Abz), X4 = G, X3 = G
[6] = system: Lys(Dnp)-ATNATRQPRIVGG-Lys(Abz)
[7] = system: Lys(Dnp)-ATNATQMPRIVGG-Lys(Abz)
[8] = system: Lys(Dnp)-ATNATGHPRIVGG-Lys(Abz)
[9] = system: Lys(Dnp)-ATNATX4X3PRIVGG-Lys(Abz), X4 = G, X3 = A
[10] = system: Lys(Dnp)-ATNATX4X3PRIVGG-Lys(Abz), X4 = D, X3 = G
[11] = system: Lys(Dnp)-ATNATPGPRIVGG-Lys(Abz)
[12] = system: Lys(Dnp)-ATNATX4X3PRIVGG-Lys(Abz), X4 = F, X3 = D
[13] = system: Lys(Dnp)-ATNATWHPRIVGG-Lys(Abz)
[14] = system: Lys(Dnp)-ATNATMQPRIVGG-Lys(Abz)
[15] = system: Lys(Dnp)-ATNATALPRIVGG-Lys(Abz)
[16] = system: Lys(Dnp)-ATNATPEPRIVGG-Lys(Abz)
[17] = system: Lys(Dnp)-ATNATX4X3PRIVGG-Lys(Abz), X4 = H, X3 = G
[18] = system: Lys(Dnp)-ATNATIVPRIVGG-Lys(Abz)
[19] = system: Lys(Dnp)-ATNATGMPRIVGG-Lys(Abz)
[20] = system: Lys(Dnp)-ATNATLGPRIVGG-Lys(Abz)
[21] = system: Lys(Dnp)-ATNATYAPRIVGG-Lys(Abz)
[22] = system: Lys(Dnp)-ATNATVDPRIVGG-Lys(Abz)
[23] = system: Lys(Dnp)-ATNATTWPRIVGG-Lys(Abz)
[24] = system: Lys(Dnp)-ATNATFEPRIVGG-Lys(Abz)
[25] = system: Lys(Dnp)-ATNATVWPRIVGG-Lys(Abz)
[26] = system: Lys(Dnp)-ATNATX4X3PRIVGG-Lys(Abz), X4 = S, X3 = P
[27] = system: Lys(Dnp)-ATNATX4X3PRIVGG-Lys(Abz), X4 = P, X3 = E
[28] = system: Lys(Dnp)-ATNATDYPRIVGG-Lys(Abz)
[29] = system: Lys(Dnp)-ATNATX4X3PRIVGG-Lys(Abz), X4 = S, X3 = R
[30] = system: Lys(Dnp)-STPSILPAPRIVGG-Lys(Abz)
[31] = system: Lys(Dnp)-ATNATDDPRIVGG-Lys(Abz)
[32] = system: Lys(Dnp)-ATNATHQPRIVGG-Lys(Abz)
[33] = system: Lys(Dnp)-ATNATYDPRIVGG-Lys(Abz)
[34] = system: Lys(Dnp)-ATNATWEPRIVGG-Lys(Abz)
[35] = system: Lys(Dnp)-ATNATWDPRIVGG-Lys(Abz)
[36] = system: Lys(Dnp)-ATNATX4X3PRIVGG-Lys(Abz), X4 = N, X3 = G
[37] = system: Lys(Dnp)-ATNATGTPRIVGG-Lys(Abz)
[38] = system: Lys(Dnp)-ATNATPHPRIVGG-Lys(Abz)
[39] = system: Lys(Dnp)-ATNATPLPRIVGG-Lys(Abz)
[40] = system: Lys(Dnp)-ATNATX4X3PRIVGG-Lys(Abz), X4 = Q, X3 = Q
[41] = system: Lys(Dnp)-ATNATHRPRIVGG-Lys(Abz)
[42] = system: Lys(Dnp)-ATNATX4X3PRIVGG-Lys(Abz), X4 = G, X3 = Y

Human plasma purified alpha-thrombin
FIIa kcat/KM [1]: 2000 M⁻¹ s⁻¹
Specificity Ratio (FIIa/FXa) [1]: 1

Human plasma purified α-thrombin
FIIa kcat/KM [2]: 12000 M⁻¹ s⁻¹
Specificity Ratio (FIIa/FXa) [2]: 28
kcat/KM [2]: 12000 M⁻¹ s⁻¹
kcat/KM [3]: 770 M⁻¹ s⁻¹
kcat/KM [4]: 1200 M⁻¹ s⁻¹
FIIa kcat/KM [5]: 820 M⁻¹ s⁻¹
Specificity Ratio (FIIa/FXa) [5]: 51
FIIa kcat/KM [6]: 640 M⁻¹ s⁻¹
Functional Selectivity (Specificity*FIIa kcat/KM) [6]: 91
Specificity Ratio (FIIa/FXa) [6]: 0
kcat/KM [6]: 640 M⁻¹ s⁻¹
kcat/KM [7]: 8100 M⁻¹ s⁻¹
kcat/KM [8]: 1200 M⁻¹ s⁻¹
FIIa kcat/KM [9]: 950 M⁻¹ s⁻¹
Specificity Ratio (FIIa/FXa) [9]: 19
FIIa kcat/KM [10]: 350 M⁻¹ s⁻¹
Specificity Ratio (FIIa/FXa) [10]: 59
FIIa kcat/KM [11]: 7200 M⁻¹ s⁻¹
Specificity Ratio (FIIa/FXa) [11]: 71
kcat/KM [11]: 7200 M⁻¹ s⁻¹
FIIa kcat/KM [12]: 1300 M⁻¹ s⁻¹
Specificity Ratio (FIIa/FXa) [12]: 21
FIIa kcat/KM [13]: 5400 M⁻¹ s⁻¹
Functional Selectivity (Specificity*FIIa kcat/KM) [13]: 680000
kcat/KM [13]: 5400 M⁻¹ s⁻¹
FIIa kcat/KM [14]: 33000 M⁻¹ s⁻¹
Functional Selectivity (Specificity*FIIa kcat/KM) [14]: 1.1e+06
kcat/KM [14]: 33000 M⁻¹ s⁻¹
FIIa kcat/KM [15]: 6300 M⁻¹ s⁻¹
Specificity Ratio (FIIa/FXa) [15]: 21
kcat/KM [15]: 6300 M⁻¹ s⁻¹
kcat/KM [16]: 7500 M⁻¹ s⁻¹
FIIa kcat/KM [17]: 1000 M⁻¹ s⁻¹
Specificity Ratio (FIIa/FXa) [17]: 22
FIIa kcat/KM [18]: 24000 M⁻¹ s⁻¹
Functional Selectivity (Specificity*FIIa kcat/KM) [18]: 1.6e+06
kcat/KM [18]: 24000 M⁻¹ s⁻¹
kcat/KM [19]: 1200 M⁻¹ s⁻¹
FIIa kcat/KM [20]: 8100 M⁻¹ s⁻¹
Specificity Ratio (FIIa/FXa) [20]: 58
kcat/KM [20]: 8100 M⁻¹ s⁻¹
FIIa kcat/KM [21]: 4800 M⁻¹ s⁻¹
Specificity Ratio (FIIa/FXa) [21]: 98
kcat/KM [21]: 4800 M⁻¹ s⁻¹
kcat/KM [22]: 1100 M⁻¹ s⁻¹
FIIa kcat/KM [23]: 2700 M⁻¹ s⁻¹
Specificity Ratio (FIIa/FXa) [23]: 132
kcat/KM [23]: 2700 M⁻¹ s⁻¹
FIIa kcat/KM [24]: 5600 M⁻¹ s⁻¹
Specificity Ratio (FIIa/FXa) [24]: 40
kcat/KM [24]: 5600 M⁻¹ s⁻¹
FIIa kcat/KM [25]: 23000 M⁻¹ s⁻¹
Functional Selectivity (Specificity*FIIa kcat/KM) [25]: 2.8e+06
kcat/KM [25]: 23000 M⁻¹ s⁻¹
FIIa kcat/KM [26]: 450 M⁻¹ s⁻¹
Specificity Ratio (FIIa/FXa) [26]: 36
FIIa kcat/KM [27]: 7500 M⁻¹ s⁻¹
Specificity Ratio (FIIa/FXa) [27]: 7
kcat/KM [28]: 410 M⁻¹ s⁻¹
FIIa kcat/KM [29]: 2300 M⁻¹ s⁻¹
Specificity Ratio (FIIa/FXa) [29]: 18
FIIa kcat/KM [30]: 9400 M⁻¹ s⁻¹
Functional Selectivity (Specificity*FIIa kcat/KM) [30]: 380000
Specificity Ratio (FIIa/FXa) [30]: 40
kcat/KM [30]: 9400 M⁻¹ s⁻¹
kcat/KM [31]: 0.0022 M⁻¹ s⁻¹
kcat/KM [32]: 1800 M⁻¹ s⁻¹
kcat/KM [33]: 890 M⁻¹ s⁻¹
FIIa kcat/KM [34]: 2100 M⁻¹ s⁻¹
Specificity Ratio (FIIa/FXa) [34]: 89
kcat/KM [34]: 2100 M⁻¹ s⁻¹
FIIa kcat/KM [35]: 1200 M⁻¹ s⁻¹
Specificity Ratio (FIIa/FXa) [35]: 71
kcat/KM [35]: 1200 M⁻¹ s⁻¹
FIIa kcat/KM [36]: 500 M⁻¹ s⁻¹
Specificity Ratio (FIIa/FXa) [36]: 55
FIIa kcat/KM [37]: 2700 M⁻¹ s⁻¹
Specificity Ratio (FIIa/FXa) [37]: 46
kcat/KM [37]: 2700 M⁻¹ s⁻¹
FIIa kcat/KM [38]: 15000 M⁻¹ s⁻¹
Specificity Ratio (FIIa/FXa) [38]: 41
kcat/KM [38]: 15000 M⁻¹ s⁻¹
FIIa kcat/KM [39]: 7700 M⁻¹ s⁻¹
Specificity Ratio (FIIa/FXa) [39]: 23
kcat/KM [39]: 7700 M⁻¹ s⁻¹
FIIa kcat/KM [40]: 10000 M⁻¹ s⁻¹
Specificity Ratio (FIIa/FXa) [40]: 7
kcat/KM [41]: 2200 M⁻¹ s⁻¹
FIIa kcat/KM [42]: 1500 M⁻¹ s⁻¹
Specificity Ratio (FIIa/FXa) [42]: 43
